Experimental data from EP0089900B1, “New N-((2-oxo-1-pyrrolidinyl)acetyl)piperazines, the methods of producing such new compounds and their salts as well as pharmaceutical preparations for therapeutic use containing these compounds or salts” (PRODES S.A., priority 1982, dated 1983).

Columns and labels:
Format in all cases: in vivo
mouse = experiment: Protection against lethality: quick decapitation, gasping time; details: gasping time after decapitation of mouse; dose 40 mg/kg
Source text: (§1) It is known that the nootropic drugs, as Piracetam, as well as the phenobarbital or hydantoin have a protection on the survival time of animals.
(§2) In the intention to increase the accuracy, we have a three trials panel in order to study the effect of the new synthetized drugs.
The second trial is the quick decapitation of mouse. The head has a typical mandibular movement, known as gasping, as searching the breathing air. The gasping time is well prolonged by the active- drugs.

animals [1] = experiment: Protection against lethality: hypoxia-hypobara (decompression), survival time; details: dose 40 mg/kg
Source text: as §1, §2

animals [2] = experiment: Protection against lethality: anoxia by CNK, survival time; details: dose 40 mg/kg
Source text: as §1, §2
The third trial is by CNK. Obviously CNK kills the animals. Again the »protected« animals live a good number of seconds more than the controls.

CCCC(C)C1(CC)C(=O)NC(=O)NC1=O (stereo not drawn) [Pentobarbital, reference compound]
Active: gasping (mouse) | hypoxia hypobara (animals [1]) | anoxia by CNK (animals [2])
